INS-1E GSIS act: primary screen for activators of insulin secretion dependent on glucose, INS-1E cells, GLuc reporter luminescence; INS-1E GLuc reporter insulin secretion, 2-3 h; activation, % at 16.6 µM; 370,000 tested, 0.61% active; AID 743287;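 active means lowest replicate activation of at least 40%, so every replicate reaches that level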;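 further: 0% = median of neutral control wells and 100% = median of IBMX positive control wells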
UUG fidelity: modulators of yeast start codon fidelity, primary screen, whole organism, S. cerevisiae, single point, plate reader | AID 602363, 2012 | S. cerevisiae UUG-firefly luciferase reporter, luminescence/redox ratio | activity score, % at 18.7 µM | hit rate 0.13% among 350,000;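 active = replicate mean at a twofold rise or more, about +100% in these data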;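 also: firefly luciferase made from a UUG start codon reports start codon fidelity; reporter light over untreated wells divided by growth signal over untreated wells; some hits fall short of that in this replicate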
SR-BI uptake up: activators of SR-BI mediated HDL lipid uptake; 320,000 tested, 0.096% active; activation, % at 12.5 µM; CHO ldlA[mSR-BI] cells, DiI-HDL uptake fluorescence, 3 h; 100 = double the neutral-control signal;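 active means mean replicate activation of at least 60% and every replicate at or above 60%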;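 further: 0% = median plate neutral-control signal and 100% = twice that signal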
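Assay system: CHO ldlA[mSR-BI] cells, LDL receptor-null, SR-BI overexpressing; medium: Ham's F12 with 0.5% BSA, HEPES 25 mM, pH 7.4; also added: DiI-HDL 10 µg/mL; timing: 3 h uptake period with compound, 37 °C; signal: DiI fluorescence, bottom read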
SR-BI DiI inh: blocks mouse SR-BI lipid uptake from DiI-HDL; 320,000 tested, 0.96% active; inhibition, % at 12.5 µM; ldlA[mSR-BI] CHO cells, DiI-HDL uptake fluorescence, 3 h;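 active means mean replicate inhibition of at least 70% and a set share of replicates each scoring 70 or more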;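 further: 0% = median of neutral control wells and 100% = median of positive control wells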
Starred values were filed as active, the others as inactive; ! = not confirmed by another sample. In the library only some 1.3% were active in any assay of this set; here they are far more common.

COc1ccc(C(=O)NCc2cn3c(C)csc3n2)cc1OC was read as INS-1E GSIS act 25, UUG fidelity -22, SR-BI uptake up -22 and SR-BI DiI inh 22.
Screening Cc1ccnc(NC(=O)c2cccc(NC(=O)c3ccc(Cl)cc3)c2)c1 returned INS-1E GSIS act -8, UUG fidelity -4, SR-BI uptake up -89 and SR-BI DiI inh 89*.
For CC(=O)c1cccc(NC(=O)c2ccc3ccccc3c2)c1 the results were INS-1E GSIS act -5, UUG fidelity -23, SR-BI uptake up -72 and SR-BI DiI inh 72*.
CC(C)Oc1ccccc1/C=N/NC(=O)c1ccc(F)cc1 was read as INS-1E GSIS act -7, UUG fidelity 0, SR-BI uptake up -63 and SR-BI DiI inh 63.
Screening COc1ccccc1/C=N/NC(=O)c1ccc(N(C)S(=O)(=O)c2ccccc2)cc1 returned INS-1E GSIS act 2, SR-BI uptake up -84 and SR-BI DiI inh 84*.
`COc1cccc(/C=N/NC(=O)c2ccc(N(C)S(=O)(=O)c3ccccc3)cc2)c1OC` gave INS-1E GSIS act -4, UUG fidelity 10, SR-BI uptake up -83 and SR-BI DiI inh 83*.
For COc1ccccc1/C=N/NC(=O)c1ccc(CN2C(=O)c3cccc4cccc2c34)cc1 the results were INS-1E GSIS act 1, UUG fidelity -6, SR-BI uptake up -89 and SR-BI DiI inh 89*.
For COc1ccc(/C=N/NC(=O)c2ccc(N(C)S(=O)(=O)c3ccccc3)cc2)c(OC)c1 the results were INS-1E GSIS act -1, UUG fidelity -8, SR-BI uptake up -64 and SR-BI DiI inh 64.
`CCN(CC)c1ccc(C(=O)N/N=C/c2ccccc2OC(F)F)cc1` gave INS-1E GSIS act -3, SR-BI uptake up -86 and SR-BI DiI inh 86*.
For COc1ccc(OC)c(/C=N/NC(=O)c2ccc(N(C)S(=O)(=O)c3ccccc3)cc2)c1 the results were INS-1E GSIS act 3, UUG fidelity 2, SR-BI uptake up -51 and SR-BI DiI inh 51.
`NNC(=O)c1ccc(CN2C(=O)c3cccc4cccc2c34)cc1` gave INS-1E GSIS act 2, SR-BI uptake up -55 and SR-BI DiI inh 55.
COc1cc(/C=N/NC(=O)c2ccc(-c3ccccc3)cc2)cc(OC)c1OC was read as INS-1E GSIS act -8, SR-BI uptake up -40 and SR-BI DiI inh 40.
COc1ccc(/C=N\NC(=O)c2ccc(-c3ccccc3)cc2)c(OC)c1OC was read as INS-1E GSIS act 0, UUG fidelity -16 and SR-BI DiI inh 75*.
C=CCSc1nc(=O)n2cccc(C)c2n1 was read as INS-1E GSIS act 67*, UUG fidelity 5, SR-BI uptake up 15 and SR-BI DiI inh -15.
Screening Cc1cccn2c(=O)nc(SCC(=O)N3CCCCC3)nc12 returned INS-1E GSIS act 43*, SR-BI uptake up 1 and SR-BI DiI inh -1.
CCOc1ccc(C(=O)Nc2c3c(nn2C(C)(C)C)CSC3)cc1OCC was read as UUG fidelity -2, SR-BI uptake up -75 and SR-BI DiI inh 75*.
`COc1ccc2c3c(n(C)c2c1)[C@H](CO)N(S(C)(=O)=O)CC31CCN(CC2CC2)CC1` gave INS-1E GSIS act 21.
CC(C)(C)c1nc2ccc(Cl)cn2c1CC1CCCCC1 was read as INS-1E GSIS act 53* and UUG fidelity 1.
CCCCc1ccc(NC(=S)NCc2cccc(OC)c2)cc1 was read as INS-1E GSIS act 8, UUG fidelity -18, SR-BI uptake up -32 and SR-BI DiI inh 32.
Screening CCCCc1ccc(NC(=S)Nc2ccc(Nc3ccc(OC)cc3)cc2)cc1 returned INS-1E GSIS act -2, SR-BI uptake up -81 and SR-BI DiI inh 81*.
Screening Cc1ccc(/C=N/n2c(-c3cccnc3)n[nH]c2=S)s1 returned INS-1E GSIS act 40*, SR-BI uptake up 17 and SR-BI DiI inh -17.
`COC(=O)c1ccccc1CSc1nsc(/C=C/N(C)C)c1C#N` gave INS-1E GSIS act 4, UUG fidelity -9, SR-BI uptake up -101 and SR-BI DiI inh 101*.
O=C(N[C@@H]1CC[C@H](CCNS(=O)(=O)c2ccc(F)cc2)O[C@H]1CO)C1CC1 was read as INS-1E GSIS act -8 and UUG fidelity 29.
Screening CCCC(=O)Nc1ccc2c(c1)C(=O)N(C)C[C@@H](OC)[C@@H](C)CN(C(=O)C1CCCC1)[C@@H](C)CO2 returned INS-1E GSIS act -9.

As a working copy, 3 of the compounds above.
COc1ccc(C(=O)NCc2cn3c(C)csc3n2)cc1OC was read as INS-1E GSIS act 25, UUG fidelity -22, SR-BI uptake up -22 and SR-BI DiI inh 22.
Screening Cc1ccnc(NC(=O)c2cccc(NC(=O)c3ccc(Cl)cc3)c2)c1 returned INS-1E GSIS act -8, UUG fidelity -4, SR-BI uptake up -89 and SR-BI DiI inh 89*.
For CC(=O)c1cccc(NC(=O)c2ccc3ccccc3c2)c1 the results were INS-1E GSIS act -5, UUG fidelity -23, SR-BI uptake up -72 and SR-BI DiI inh 72*.

(further entries)
COc1ccc(/C=N/Nc2nc(-c3cccc(S(=O)(=O)N4CCCC4)c3)cs2)c(OC)c1 was read as SR-BI uptake up -83 and SR-BI DiI inh 83*.
For CCOC(=O)c1[nH]cnc1C(=O)NC(C)C the results were INS-1E GSIS act 41*, UUG fidelity -28, SR-BI uptake up 19 and SR-BI DiI inh -19.
For CC1(C)N=C(c2ccccc2)C(c2ccccc2)=N1 the results were INS-1E GSIS act 41*, UUG fidelity -7, SR-BI uptake up 26 and SR-BI DiI inh -26.
c1ccc(-c2nnc(-c3ccccc3)nn2)cc1 was read as INS-1E GSIS act 13 and UUG fidelity -22.
Screening CCOC(=O)/C=c1\sc2n(c1=O)CCN=2 returned INS-1E GSIS act 48*, UUG fidelity -14, SR-BI uptake up 9 and SR-BI DiI inh -9.
Screening COCC#Cc1ccc([C@H]2[C@H](CO)N3C(=O)CN(C(=O)Nc4cc(F)ccc4F)C[C@@H]23)cc1 returned INS-1E GSIS act 17.
Screening Cc1ccc(S(=O)(=O)Nc2cccc3c2O[C@H](CN(C)S(=O)(=O)c2c(C)noc2C)[C@@H](C)CN([C@H](C)CO)C3=O)cc1 returned INS-1E GSIS act -1.
For COc1ccc(/C=C2/S/C(=N/S(=O)(=O)Cc3ccccc3)NC2=O)cc1OC the results were INS-1E GSIS act 79*.
`COc1ccc(Nc2nc(N(C)c3ccccc3)nc(N)c2[N+](=O)[O-])cc1` gave INS-1E GSIS act 10, SR-BI uptake up 138* and SR-BI DiI inh -138.
`CN(c1ccccc1)c1nc(N)c([N+](=O)[O-])c(Nc2ccccc2)n1` gave INS-1E GSIS act 4, UUG fidelity -12, SR-BI uptake up -23 and SR-BI DiI inh 23.
`CC1=C(C(=O)OCc2ccccc2)C(c2cccnc2)n2ncnc2N1` (stereo unspecified) gave SR-BI uptake up -6 and SR-BI DiI inh 6.
Screening CC1=C(C(=O)OCc2ccccc2)C(c2cccnc2)c2c(n(C)c(=O)n(C)c2=O)N1 (stereo unspecified) returned INS-1E GSIS act 42*!, UUG fidelity -6, SR-BI uptake up -3 and SR-BI DiI inh 3.
For C[C@@H]1CN([C@H](C)CO)C(=O)c2ccccc2-c2ccccc2CO[C@@H]1CN(C)C the results were INS-1E GSIS act 6.
For CC(C)[C@H]1CCc2cnnn2COC[C@H](c2ccccc2)NC1=O the results were INS-1E GSIS act 9.
Screening Cc1ccc(-c2cc(C(=O)N/N=C/c3ccccc3O)n[nH]2)o1 returned INS-1E GSIS act -12, UUG fidelity -9, SR-BI uptake up -83 and SR-BI DiI inh 83*.

Two entries picked at random from the list so far:
`CN(c1ccccc1)c1nc(N)c([N+](=O)[O-])c(Nc2ccccc2)n1` gave INS-1E GSIS act 4, UUG fidelity -12, SR-BI uptake up -23 and SR-BI DiI inh 23.
COc1ccc(/C=N/Nc2nc(-c3cccc(S(=O)(=O)N4CCCC4)c3)cs2)c(OC)c1 was read as SR-BI uptake up -83 and SR-BI DiI inh 83*.

Source: PubChem
